Target: 5-hydroxytryptamine receptor 2C (Homo sapiens, UniProt P28335)
Assay: Binding affinity to human cloned 5HT2C receptor by radioligand binding assay

Protein sequences, listed by entry. Tags and fused reporters are not part of them. Lines headed by an entry give the natural chain unless they say otherwise; changes in a name come on top.
UniProt P28335: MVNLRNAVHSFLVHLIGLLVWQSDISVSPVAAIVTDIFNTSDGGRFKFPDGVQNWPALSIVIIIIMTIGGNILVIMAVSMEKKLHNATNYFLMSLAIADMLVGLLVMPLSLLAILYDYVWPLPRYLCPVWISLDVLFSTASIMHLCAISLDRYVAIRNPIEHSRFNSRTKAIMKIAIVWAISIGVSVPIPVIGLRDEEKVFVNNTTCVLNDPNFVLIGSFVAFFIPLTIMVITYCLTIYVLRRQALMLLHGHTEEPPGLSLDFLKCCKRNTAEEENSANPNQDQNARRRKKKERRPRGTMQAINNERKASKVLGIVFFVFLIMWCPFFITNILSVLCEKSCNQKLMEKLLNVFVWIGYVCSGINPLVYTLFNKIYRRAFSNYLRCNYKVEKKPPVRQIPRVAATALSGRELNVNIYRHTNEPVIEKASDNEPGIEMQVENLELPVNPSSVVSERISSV

Q: Which Ki does the source give for `O=C(CCCN1C2CCC1CC(O)(c1ccc(Cl)cc1)C2)c1ccc(F)cc1` (stereo unspecified) here?
A: 872 nM

— ChEMBL document CHEMBL1148503, “Evaluation of the eutomer of 4-{3-(4-chlorophenyl)-3-hydroxypyrrolidin-1-yl}-1-(4-fluorophenyl)butan-1-one, {(+)-SYA 09}, a pyrrolidine analog of haloperidol” (Bioorg Med Chem Lett, 2006)
